These results are taken from BindingDB's records for doi:10.1007/bfb0000613 (German Institute of Human Nutrition, 1998).

The chains behind the UniProt entries cited, without tags or fusion partners. Where a name states a change or a piece, a line headed by the entry shows the natural chain unless it says otherwise.
UniProt P31391: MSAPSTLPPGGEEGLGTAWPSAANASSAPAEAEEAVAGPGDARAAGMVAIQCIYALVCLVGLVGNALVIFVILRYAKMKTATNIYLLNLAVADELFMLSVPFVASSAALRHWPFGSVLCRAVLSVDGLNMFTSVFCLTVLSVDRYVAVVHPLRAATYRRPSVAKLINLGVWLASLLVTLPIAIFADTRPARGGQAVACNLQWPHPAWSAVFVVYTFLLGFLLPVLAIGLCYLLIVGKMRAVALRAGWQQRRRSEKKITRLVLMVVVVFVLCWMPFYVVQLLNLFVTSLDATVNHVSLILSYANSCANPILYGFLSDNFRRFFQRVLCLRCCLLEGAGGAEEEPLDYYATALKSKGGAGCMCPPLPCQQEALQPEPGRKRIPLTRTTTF

A word on the Ki: it is a dissociation constant, usually derived from enzyme kinetics or from competition with a known ligand. Low values mean a stronger hold on the target, high ones a looser hold on the target.

This experiment addresses Somatostatin receptor type 4 (Homo sapiens, UniProt P31391).

Compound `C[C@@H](O)[C@@H]1NC(=O)[C@H](CCCCN)NC(=O)[C@@H](Cc2c[nH]c3ccccc23)NC(=O)[C@H](Cc2ccccc2)NC(=O)[C@H](Cc2ccccc2)NC(=O)[C@H](N)CSSC[C@H](C(N)=O)NC(=O)[C@H](Cc2ccccc2)NC1=O` gave a Ki of 174 nM.
